“Also recorded” adds a separate entry of the source.
How the values were obtained:
mu receptors [1] = biological target: T1, mu receptors (Mus musculus, UniProt P42866); format: binding
T1 construct: FLAG; expressed in transfected cells; host or cells: CHO

Amino acid sequences for entries named in this document (tags omitted).
UniProt P42866, whole entry: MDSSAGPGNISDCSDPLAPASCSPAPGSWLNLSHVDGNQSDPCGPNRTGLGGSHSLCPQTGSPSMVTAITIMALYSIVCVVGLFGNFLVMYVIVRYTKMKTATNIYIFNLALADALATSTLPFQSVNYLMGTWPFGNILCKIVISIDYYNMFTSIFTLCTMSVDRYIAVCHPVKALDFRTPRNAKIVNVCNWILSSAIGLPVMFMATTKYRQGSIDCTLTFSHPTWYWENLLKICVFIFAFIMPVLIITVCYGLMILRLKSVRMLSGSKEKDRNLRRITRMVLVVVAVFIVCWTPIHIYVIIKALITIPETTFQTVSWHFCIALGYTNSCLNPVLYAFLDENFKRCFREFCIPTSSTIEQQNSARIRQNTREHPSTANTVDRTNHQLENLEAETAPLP
UniProt P32300, whole entry: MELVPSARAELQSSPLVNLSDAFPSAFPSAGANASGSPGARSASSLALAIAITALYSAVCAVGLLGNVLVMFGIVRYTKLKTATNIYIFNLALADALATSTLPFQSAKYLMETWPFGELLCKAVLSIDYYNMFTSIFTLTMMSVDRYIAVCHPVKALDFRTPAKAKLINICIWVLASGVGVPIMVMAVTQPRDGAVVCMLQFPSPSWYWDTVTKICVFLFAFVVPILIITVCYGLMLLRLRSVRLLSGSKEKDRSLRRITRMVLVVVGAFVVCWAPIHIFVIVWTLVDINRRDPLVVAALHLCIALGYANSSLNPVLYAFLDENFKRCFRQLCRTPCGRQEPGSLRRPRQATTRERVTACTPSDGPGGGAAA

mu-delta heterodimers = mu-delta heterodimers (Mus musculus, UniProt P32300+P42866)
mu and delta receptors = biological target: T2, mu and delta receptors (Mus musculus, UniProt P32300+P42866); test: Whole cell 3H-DAMGO binding, cells exogenously co-expressing mu and delta receptors; conditions: delta subtype selective agonist present
T2 construct: FLAG; myc; expressed in transfected cells; host or cells: CHO

mu receptors [2] = biological target: T1, mu receptors; test: Whole cell 3H-DAMGO binding, cells expressing mu receptors alone; conditions: cells expressing only mu receptors

Substance | super high affinity site (mu receptors [1]) | competition for [3H]-diprenorphine (in words) (mu-delta heterodimers) | increase in the population of receptors binding 3H-DAMGO (mu and delta receptors) | increase in 3H-DAMGO binding sites (mu receptors [2])
CTOP | not seen | additional super high affinity; also recorded: single binding site; also recorded: second super high affinity binding site |  | 
deltorphin II |  |  | increase in the population of receptors | not seen

— patent US6855807B1 (priority 1999, dated 2005)
